Assay results as given in paper PMC6733504, “Effects of flavoring compounds used in electronic cigarette refill liquids on endothelial and vascular function” (PLoS ONE, 2019).

Target: T1, soluble guanylate cyclase (sGC) (Bos taurus, UniProt P16068+P19687)
T1 construct: The activity of sGC purified from bovine lung; from tissue; host or cells: bovine lung
T1 sequence (P19687 1-691): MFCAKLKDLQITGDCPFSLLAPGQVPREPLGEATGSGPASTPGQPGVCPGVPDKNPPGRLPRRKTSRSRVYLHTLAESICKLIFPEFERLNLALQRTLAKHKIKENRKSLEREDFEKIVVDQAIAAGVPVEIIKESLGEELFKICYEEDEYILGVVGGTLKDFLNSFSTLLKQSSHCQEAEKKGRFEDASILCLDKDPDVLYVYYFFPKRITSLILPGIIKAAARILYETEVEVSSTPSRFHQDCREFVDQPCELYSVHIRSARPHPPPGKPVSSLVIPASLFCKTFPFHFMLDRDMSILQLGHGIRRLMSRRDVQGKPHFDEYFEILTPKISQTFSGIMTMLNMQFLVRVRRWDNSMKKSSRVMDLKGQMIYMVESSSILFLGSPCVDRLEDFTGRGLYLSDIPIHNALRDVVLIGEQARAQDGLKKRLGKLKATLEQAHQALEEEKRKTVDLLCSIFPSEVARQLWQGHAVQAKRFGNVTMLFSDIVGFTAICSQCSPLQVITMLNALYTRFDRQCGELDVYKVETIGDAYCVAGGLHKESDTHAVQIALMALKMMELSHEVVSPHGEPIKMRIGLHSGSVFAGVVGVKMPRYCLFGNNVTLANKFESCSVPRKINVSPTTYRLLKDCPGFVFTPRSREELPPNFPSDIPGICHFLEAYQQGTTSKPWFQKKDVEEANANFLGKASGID
T1 sequence (P16068 1-619): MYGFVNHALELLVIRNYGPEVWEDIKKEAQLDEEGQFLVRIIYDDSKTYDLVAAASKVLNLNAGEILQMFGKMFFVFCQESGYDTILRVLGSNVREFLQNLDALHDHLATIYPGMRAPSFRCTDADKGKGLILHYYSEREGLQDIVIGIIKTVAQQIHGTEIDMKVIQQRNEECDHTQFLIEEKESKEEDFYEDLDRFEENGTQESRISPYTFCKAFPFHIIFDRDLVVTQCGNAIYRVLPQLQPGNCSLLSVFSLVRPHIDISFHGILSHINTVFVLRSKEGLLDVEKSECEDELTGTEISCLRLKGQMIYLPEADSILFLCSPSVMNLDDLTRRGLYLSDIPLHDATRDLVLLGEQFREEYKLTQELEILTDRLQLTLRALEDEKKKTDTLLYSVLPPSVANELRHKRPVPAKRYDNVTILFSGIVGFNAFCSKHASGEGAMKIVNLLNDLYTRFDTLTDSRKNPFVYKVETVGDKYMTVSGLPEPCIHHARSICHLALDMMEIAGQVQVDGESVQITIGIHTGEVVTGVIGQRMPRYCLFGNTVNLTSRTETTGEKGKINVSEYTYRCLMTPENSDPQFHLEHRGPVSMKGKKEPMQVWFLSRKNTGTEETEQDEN
Assay: Activity of purified sGC stimulated with DEA/NO
Format: biochemical, bovine
Conditions: flavoring 1 mM, DEA/NO 0.01–10 μM
Method: The activity of sGC purified from bovine lung was determined as formation of [^32P]cGMP from [α-^32P]GTP. The purified enzyme (50 ng) was incubated at 37°C for 10 min in a final volume of 0.1 ml in the absence or presence of flavorings with the NO donor DEA/NO at concentrations indicated in the figure legends, followed by isolation of [^32P]cGMP and quantification of radioactivity (Cerenkov radiation) in a β counter.
To test for reversibility of inhibition, sGC (50 ng) was preincubated in the absence or presence of the respective compounds for 5 minutes at 37°C, followed by 50-fold dilution in the assay mixtures and incubation with DEA/NO at 37°C for 10 minutes.

Emax of DEA/NO-stimulated sGC activity in presence of flavoring: 26±0.9 µmol cGMP x min-1 x mg-1
Structure (SMILES): CC12CCC(CC1)C(C)(C)O2 [Eucalyptol, 1,3,3-Trimethyl-2-oxabicyclo[2.2.2]octane]
